From patent US12180165B2, “Human TLR8-selective agonists” (University of Kansas, priority 2015, dated 2024)

target: T1, human TLR8 (Homo sapiens, UniProt Q9NR97); test: Human TLR8-specific reporter gene assay (NF-κB induction, sAP readout in HEK293 cells); assay type: cell-based; settings: EC50 in human TLR8-specific reporter gene assay
T1 construct: expressed in transfected cells; host or cells: HEK293
T1 sequence (Q9NR97 27-1041): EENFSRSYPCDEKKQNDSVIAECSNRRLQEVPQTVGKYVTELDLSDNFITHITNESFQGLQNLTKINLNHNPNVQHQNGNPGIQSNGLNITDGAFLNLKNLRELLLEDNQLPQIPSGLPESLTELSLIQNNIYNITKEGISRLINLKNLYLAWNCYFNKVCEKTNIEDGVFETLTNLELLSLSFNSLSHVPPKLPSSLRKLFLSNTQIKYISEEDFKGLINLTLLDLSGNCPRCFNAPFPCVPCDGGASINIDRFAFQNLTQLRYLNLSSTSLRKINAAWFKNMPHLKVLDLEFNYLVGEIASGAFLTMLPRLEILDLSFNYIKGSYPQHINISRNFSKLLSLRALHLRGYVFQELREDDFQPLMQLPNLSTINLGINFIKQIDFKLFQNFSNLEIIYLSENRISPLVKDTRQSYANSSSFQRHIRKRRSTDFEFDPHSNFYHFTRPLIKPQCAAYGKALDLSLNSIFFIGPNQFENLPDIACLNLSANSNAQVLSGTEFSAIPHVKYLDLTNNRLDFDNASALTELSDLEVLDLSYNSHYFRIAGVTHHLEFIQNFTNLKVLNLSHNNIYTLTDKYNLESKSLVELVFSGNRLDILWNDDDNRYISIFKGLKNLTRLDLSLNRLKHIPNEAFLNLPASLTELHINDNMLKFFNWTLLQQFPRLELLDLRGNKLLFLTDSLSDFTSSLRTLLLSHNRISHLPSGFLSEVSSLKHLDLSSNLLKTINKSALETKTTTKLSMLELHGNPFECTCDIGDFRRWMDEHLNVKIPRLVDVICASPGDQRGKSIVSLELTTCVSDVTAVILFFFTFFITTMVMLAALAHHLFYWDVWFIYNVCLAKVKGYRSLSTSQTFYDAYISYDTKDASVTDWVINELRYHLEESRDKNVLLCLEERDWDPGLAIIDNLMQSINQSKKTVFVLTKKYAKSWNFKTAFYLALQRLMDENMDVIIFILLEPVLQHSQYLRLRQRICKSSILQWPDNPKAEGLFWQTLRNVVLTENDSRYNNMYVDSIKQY

| SMILES | TLR8 Agonistic Activity (nM) |
| --- | --- |
| CCCCCc1cc2cccc(CCCCN)c2nc1N [Compound 37, 8-(4-Aminobutyl)-3-pentylquinolin-2-amine] | entirely devoid of activity |
| CCCCCc1cc2c(-c3cccc(CN)c3)cccc2nc1N [Compound 20a, 5-(3-(Aminomethyl)phenyl)-3-pentylquinolin-2-amine] | entirely inactive |

same assay, conditions: read-out: TLR8 Agonistic Activity

| SMILES | EC50 [nM] |
| --- | --- |
| CCCCCc1cc2c(-c3ccc(CN)cc3)cccc2nc1N [Compound 20b, 5-(4-(Aminomethyl)phenyl)-3-pentylquinolin-2-amine] | 699 |
| CCCCCc1cc2c(CCCCCN)cc(CCCCCN)cc2nc1N [Compound 43, 5,5′-(2-amino-3-pentylquinoline-5,7-diyl)bis(pentan-1-amine)] | 621 |
| CCCCCc1cc2c(CCCN)cccc2nc1N [Compound 23, 5-(3-Aminopropyl)-3-pentylquinolin-2-amine] | 91 |
| CCCCCc1cc2cc(CCCCCCN)ccc2nc1N [Compound 35c, 6-(6-Aminohexyl)-3-pentylquinolin-2-amine] | 1020 |
| CCCCCc1cc2ccc(CCCCCCN)cc2nc1N [Compound 36c, 7-(6-Aminohexyl)-3-pentylquinolin-2-amine] | 85 |
| CCCCCc1cc2c(CCCC(N)=O)cccc2nc1N [Compound 34d, 4-(2-Amino-3-pentylquinolin-5-yl)butanamide] | 2180 |
| CCCCCc1cc2c(CCCCNC(=N)N)cccc2nc1N [Compound 34e, 1-(4-(2-Amino-3-pentylquinolin-5-yl)butyl)guanidine] | 2860 |
| CCCCCc1cc2c(CCCCCCN)cccc2nc1N [Compound 34c, 5-(6-Aminohexyl)-3-pentylquinolin-2-amine] | 56 |
| CCCCCc1c(N)nc2ccccc2c1CCCCN [Compound 14a, 4-(4-Aminobutyl)-3-pentylquinolin-2-amine dihydrochloride] | 190 |
| CCCCCc1cc2c(CCCCCN)cccc2nc1N [Compound 34b, 5-(5-Aminopentyl)-3-pentylquinolin-2-amine] | 9 |
| CCCCCc1c(N)nc2ccccc2c1Cc1cccc(CN)c1 [Compound 9a, 4-(3-(Aminomethyl)benzyl)-3-pentylquinolin-2-amine dihydrochloride] | 150 |
| CCCCCc1c(N)nc2ccccc2c1Cc1ccc(CN)cc1 [Compound 9b, 4-(4-(Aminomethyl)benzyl)-3-pentylquinolin-2-amine dihydrochloride] | 120 |
| CCCCCc1cc2cc(CCCCN)ccc2nc1N [Compound 35a, 6-(4-Aminobutyl)-3-pentylquinolin-2-amine] | 727 |
| CCCCCc1cc2ccc(CCCCN)cc2nc1N [Compound 36a, 7-(4-Aminobutyl)-3-pentylquinolin-2-amine] | 60 |
| CCCCCc1cc2c(Cc3cccc(CN)c3)cccc2nc1N [Compound 18a, 5-(3-(Aminomethyl)benzyl)-3-pentylquinolin-2-amine] | 49 |
| CCCCCc1cc2cc(CCCCCN)ccc2nc1N [Compound 35b, 6-(5-Aminopentyl)-3-pentylquinolin-2-amine] | 519 |
| CCCCCc1cc2c(CCCCN)cccc2nc1N [Compound 34a, 5-(4-Aminobutyl)-3-pentylquinolin-2-amine] | 27 |
| CCCCCc1c(N)nc2ccccc2c1CCCCCN [Compound 14b, 4-(5-Aminopentyl)-3-pentylquinolin-2-amine dihydrochloride] | 250 |
| CCCCCc1cc2c(Cc3ccc(CN)cc3)cccc2nc1N [Compound 18b, 5-(4-(Aminomethyl)benzyl)-3-pentylquinolin-2-amine] | 38 |
| CCCCCc1cc2c(Cc3ccccc3CN)cccc2nc1N [Compound 18c, 5-(2-(Aminomethyl)benzyl)-3-pentylquinolin-2-amine] | 1000 |
| CCCCCc1cc2ccc(CCCCCN)cc2nc1N [Compound 36b, 7-(5-Aminopentyl)-3-pentylquinolin-2-amine] | 50 |

test system: human PBMCs; test: Cytokine/chemokine induction in human peripheral blood mononuclear cells (multiplexed bead array); assay type: cell-based; settings: human PBMCs as well as whole human blood, FIG. 3
Description: Immunoassays for cytokines.

| SMILES | potency of cytokine induction relative to 3 and 1 |
| --- | --- |
| CCCCCc1cc2c(CCCCCN)cccc2nc1N [Compound 34b, 5-(5-Aminopentyl)-3-pentylquinolin-2-amine] | significantly higher |

Counter-ions that a name gives are not always drawn.
